Measurements as given in PubChem BioAssay AID485318 (Broad Institute, 2010).
The list shows a part of the results, in another mix than the full data. Activity calls are given as the source filed them.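 How the source made its calls: active means fluorescence-lowering compounds whose fitted half-maximal concentration is at or below ten times the highest valid dose tested; inconclusive means flat curve at 30 to 70% inhibition, or poor fit; inactive means the rest.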

Protein sequences, listed by entry. Tags and fused reporters are not part of them. Lines headed by an entry give the natural chain unless they say otherwise; changes in a name come on top.
UniProt O15379: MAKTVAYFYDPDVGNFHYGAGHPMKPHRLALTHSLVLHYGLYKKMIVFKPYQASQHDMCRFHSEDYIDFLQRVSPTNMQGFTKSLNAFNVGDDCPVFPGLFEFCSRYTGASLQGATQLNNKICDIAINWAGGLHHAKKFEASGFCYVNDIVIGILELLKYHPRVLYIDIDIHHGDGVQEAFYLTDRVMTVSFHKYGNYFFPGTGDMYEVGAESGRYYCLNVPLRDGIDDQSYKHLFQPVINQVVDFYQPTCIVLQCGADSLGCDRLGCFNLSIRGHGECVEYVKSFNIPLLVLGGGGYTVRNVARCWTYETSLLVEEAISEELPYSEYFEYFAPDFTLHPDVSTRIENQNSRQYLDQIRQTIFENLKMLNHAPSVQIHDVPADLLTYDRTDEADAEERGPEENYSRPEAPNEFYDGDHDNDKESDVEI

Biological target: Histone deacetylase 3 (Homo sapiens) (UniProt O15379)
Experiment: inhibition of human HDAC3 enzymatic activity – biochemical, fluorescence, cherry-picked samples, counter-screen for JMJD2C/GASC1 demethylase inhibitor project, dose response (AID 485318);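 further: enzyme preincubated with compound before substrate and trypsin were added; 0% = neutral control wells and -100% = SAHA positive control wells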
Settings: recombinant HDAC3, fluorogenic peptide/trypsin coupled; at 12 µM (top of the series)

For `Cc1ccc(OCC(=O)OC2CN3CCC2CC3)cc1` (stereo unspecified), which activity change, negative = inhibition is on record?
The activity change, negative = inhibition was inactive: 0.221%.
